Test results from ChEMBL document CHEMBL5226285, “The long and winding road of designing phosphodiesterase inhibitors for the treatment of heart failure” (Eur J Med Chem, 2021).

By UniProt entry, the sequences of proteins in these tests, tags left out. Where a name states a change or a piece, a line headed by the entry shows the natural chain unless it says otherwise.
UniProt O76083: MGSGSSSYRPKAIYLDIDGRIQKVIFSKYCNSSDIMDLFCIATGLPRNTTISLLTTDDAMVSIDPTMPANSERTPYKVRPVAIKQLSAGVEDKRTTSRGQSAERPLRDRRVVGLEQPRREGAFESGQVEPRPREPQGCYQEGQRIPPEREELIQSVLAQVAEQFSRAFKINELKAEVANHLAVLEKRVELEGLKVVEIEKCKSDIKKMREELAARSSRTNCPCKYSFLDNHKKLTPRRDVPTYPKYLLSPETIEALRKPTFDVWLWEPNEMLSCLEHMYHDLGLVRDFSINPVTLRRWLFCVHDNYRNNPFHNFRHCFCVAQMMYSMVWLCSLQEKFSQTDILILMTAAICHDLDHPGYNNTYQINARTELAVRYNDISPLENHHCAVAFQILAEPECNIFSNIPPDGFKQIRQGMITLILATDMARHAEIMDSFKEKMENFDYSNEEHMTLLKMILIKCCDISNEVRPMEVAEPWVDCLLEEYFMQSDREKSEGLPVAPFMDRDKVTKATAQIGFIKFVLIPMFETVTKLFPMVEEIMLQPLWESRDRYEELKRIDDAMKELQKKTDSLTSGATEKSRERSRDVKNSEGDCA

Target: High affinity cGMP-specific 3',5'-cyclic phosphodiesterase 9A (Homo sapiens, UniProt O76083)

Question: For `C[C@@H](Nc1nc2c(cnn2C2CCCC2)c(=O)[nH]1)c1ccc(Cl)cc1`, which IC50 is on record?
Answer: Its IC50 is 0.056 µM.

Question: `C[C@H](Nc1nc2c(cnn2C2CCCC2)c(=O)[nH]1)c1ccc(Cl)cc1` was tested. Which IC50 did it give?
Answer: The IC50 was 0.011 µM.
